Among the data in paper PMC5577515, “Peptide‐Directed Binding for the Discovery of Modulators of α‐Helix‐Mediated Protein–Protein Interactions: Proof‐of‐Concept Studies with the Apoptosis Regulator Mcl‐1” (Angewandte Chemie (International Ed. in English), 2017) are IC50 values, retold here.

Amino acid sequences for entries named in this document (tags omitted). A change or cut given only in a name is not applied to a line headed by its entry. Residues count along the entry.
UniProt P10415: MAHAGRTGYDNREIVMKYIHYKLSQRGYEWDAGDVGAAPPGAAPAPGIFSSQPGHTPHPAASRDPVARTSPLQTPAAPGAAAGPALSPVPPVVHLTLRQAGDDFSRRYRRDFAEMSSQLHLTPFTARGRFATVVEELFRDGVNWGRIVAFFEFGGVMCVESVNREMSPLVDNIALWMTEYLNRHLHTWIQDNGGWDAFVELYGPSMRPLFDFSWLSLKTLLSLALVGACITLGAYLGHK
UniProt P97287, 152-189 limits assumed: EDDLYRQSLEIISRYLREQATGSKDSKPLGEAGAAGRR
UniProt Q07820, 209-327 limits assumed: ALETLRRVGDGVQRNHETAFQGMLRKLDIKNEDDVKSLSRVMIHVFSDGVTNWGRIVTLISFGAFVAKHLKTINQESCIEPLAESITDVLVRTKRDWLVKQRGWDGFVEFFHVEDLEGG

Usually IC50 stands for the midpoint of a concentration-inhibition curve. Low values mean greater potency, high ones weaker potency.

Experiment [1] deals with T1, Bcl-2 (Homo sapiens, UniProt P10415, DEL35-91/INS34DVEENRTEAPEGTESE).
T1 construct: The Bcl-2 protein used in our study has the same construction as that used in the work of Fesik; purchased Dundee Cell Product Ltd
The experiment in a line: Competitive FA assay, FITC-Bid displacement from Bcl-2. It is filed as binding. How it is done: For binding each well contained 10 µL of Bcl -2 protein in 10-fold dilutions (0.90 pM to 9.0 µM) […]
were dissolved in PBS: 0.05% Tween -20 buffer at pH 7.4. Reagents were incubated for 30 min at room temperature prior to reading. Bubbles were removed and 8 data points were generated.
Figure S 3: Fluorescence Anisotropy direct titration. […] Normalized […]
(1 picture or pasted object on this page, not shown here)

Experiment [2] has as its target T2, Mcl-1 (UniProt P97287+Q07820).
T2 construct: amino acid residues 152-189 of mouse Mcl-1 fused with amino acid residues 209-327 of; 8 x His (N); TEV site (N); made in house; host or cells: E. coli BL21(DE3)pLysS
The experiment in a line: Competitive fluorescence anisotropy (FA) assay, FITC-NoxaB displacement from Mcl-1. It is filed as binding. The procedure:
Fmoc, 9-fluorenylmethylcarbony. IC50 determined by non -linear regression of at least three experiments.
4. Fluorescence Anisotropy Binding Assay
Fluorescence anisotropy was carried out on a BMG Labtech clariostar microplate reader with a fluorescence anisotropy optic measuring at 482/530 nm. Low -binding, Corning 96 -well black plates were used and all reagents used in the assay were biological grade and purchased from Sigma Aldrich and Novabioche m. All solutions were made using MilliQ water .
Anisotropy values were automatically calculated using the following formula […]
Where r = anisotropy, l a = parallel emission light, lb = perpendicular emission light and I = total […]
KD was determined using GraphPad Prism Version 6.0 software, using the One Site – Total binding […]
Where Bmax is the maximum specific binding, KD is the equilibrium binding constant, and NS is the slope of nonspecific binding. […]
IC50 was determined using GraphPad Prism Version 6.0 software, using a four-parameter logistic model, according to precedent from Ottmann and co-workers.[5] Errors are the transformed greater extreme of the standard error. […]
protein were dissolved in PBS: 0.05% Tween -20 buffer at pH 7.4. Reagents were incubated for 30 min at room temperature prior to reading. […]
Figure S 1: Fluorescence Anisotropy direct titration. […]

Each structure is given as a SMILES string.

`CC1(C)CCC(c2ccc(Cl)cc2)=C(CN2CCN(c3ccc(C(=O)NS(=O)(=O)c4ccc(N[C@H](CCN5CCOCC5)CSc5ccccc5)c(S(=O)(=O)C(F)(F)F)c4)cc3)CC2)C1` [ABT-263, reference compound] came in with an IC50 in experiment [1] of 349 nM.

With `CC[C@H](C)[C@H](NC(=O)[C@H](CCCNC(=N)N)NC(=O)[C@H](CCCNC(=N)N)NC(=O)[C@H](CC(C)C)NC(=O)[C@H](CCC(N)=O)NC(=O)[C@H](C)NC(=O)[C@H](C)NC(C)=O)C(=O)NCC(=O)N[C@@H](CC(=O)O)C(=O)N[C@@H](CCCCN)C(=O)N[C@H](C(=O)N[C@@H](CC(N)=O)C(=O)N[C@@H](CC(C)C)C(=O)N[C@@H](CCCNC(=N)N)C(=O)N[C@@H](CCC(N)=O)C(=O)N[C@@H](CCCCN)C(=O)N[C@@H](CC(C)C)C(=O)N[C@@H](CC(C)C)C(=O)N[C@@H](CC(N)=O)C(N)=O)C(C)C` [NoxaB, reference compound], the IC50 in experiment [2] came out at 650 ± 130 nM.
